The text below walks through data of ChEMBL document CHEMBL6127080, “Design, synthesis and biological evaluation of novel diphenylamine analogues as NLRP3 inflammasome inhibitors” (Bioorg Med Chem, 2024).

Sequences of proteins named here, by UniProt entry; tags and fusion partners are left off.
UniProt Q8R4B8, whole entry: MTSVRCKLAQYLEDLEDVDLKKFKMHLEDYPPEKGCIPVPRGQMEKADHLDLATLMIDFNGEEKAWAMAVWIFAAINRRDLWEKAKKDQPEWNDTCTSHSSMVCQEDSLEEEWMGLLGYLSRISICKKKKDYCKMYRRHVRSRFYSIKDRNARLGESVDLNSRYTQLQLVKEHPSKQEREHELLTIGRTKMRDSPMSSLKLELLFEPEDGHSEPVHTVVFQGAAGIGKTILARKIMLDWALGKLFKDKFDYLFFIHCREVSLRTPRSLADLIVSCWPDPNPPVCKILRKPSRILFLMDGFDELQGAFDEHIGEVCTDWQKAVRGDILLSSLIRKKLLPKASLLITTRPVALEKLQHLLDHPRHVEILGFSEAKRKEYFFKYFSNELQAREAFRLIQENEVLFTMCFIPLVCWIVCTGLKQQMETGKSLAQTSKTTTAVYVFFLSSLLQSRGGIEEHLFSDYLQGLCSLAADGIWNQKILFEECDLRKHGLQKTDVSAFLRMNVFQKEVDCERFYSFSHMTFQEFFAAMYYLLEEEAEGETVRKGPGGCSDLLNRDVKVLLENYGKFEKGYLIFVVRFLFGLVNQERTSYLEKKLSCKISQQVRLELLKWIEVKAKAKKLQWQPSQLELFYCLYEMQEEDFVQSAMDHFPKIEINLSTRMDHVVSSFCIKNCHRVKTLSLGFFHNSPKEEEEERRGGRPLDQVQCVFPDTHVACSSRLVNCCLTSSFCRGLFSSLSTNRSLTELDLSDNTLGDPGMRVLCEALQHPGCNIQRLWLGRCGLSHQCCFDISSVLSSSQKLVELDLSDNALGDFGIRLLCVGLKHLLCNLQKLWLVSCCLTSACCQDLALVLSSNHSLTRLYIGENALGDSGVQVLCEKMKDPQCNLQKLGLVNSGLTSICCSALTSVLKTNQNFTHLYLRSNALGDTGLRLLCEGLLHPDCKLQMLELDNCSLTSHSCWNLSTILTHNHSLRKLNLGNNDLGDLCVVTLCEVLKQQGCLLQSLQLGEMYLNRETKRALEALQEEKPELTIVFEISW

Each structure is given as a SMILES string.

Experiment [1] has as its target NACHT, LRR and PYD domains-containing protein 3 (Mus musculus) (UniProt Q8R4B8). The experiment can be described thus: Inhibition of NLRP3 inflammasome activation in mouse […] cells assessed as reduction in LPS/ATP-induced IL-1 beta release at 1 uM pretreated with LPS for 4.5 hrs followed by compound addition for 30 mins prior to ATP addition and measured after 30 mins by ELISA relative to control. The experiment is classed as cell-based. The following applies: J774.A1, time 5.5 hrs.

Experiment [2] shares this target. The experiment can be described thus: Inhibition of NLRP3 inflammasome activation in mouse […] cells assessed as reduction in LPS/ATP-induced IL-1 beta release at 10 uM pretreated with LPS for 4.5 hrs followed by compound addition for 30 mins prior to ATP addition and measured after 30 mins by ELISA relative to control. The following applies: J774.A1, time 5.5 hrs. The experiment is classed as cell-based. (In general: In an ELISA, binding on a coated surface is turned into a signal by an enzyme label.)

Consider `CCC(=O)Nc1ccc(-c2ccccc2N(Cc2cc(Cl)ccc2OCCOC)C(=O)c2ccc(F)cc2)cc1`, for which the inhibition – broadly, the percentage by which the read-out fell short of the control – in experiment [1] was 84.5%; in experiment [2] it was 93.3%.
